{"source": "patent US20260169011A1", "about": "“METHODS AND COMPOSITIONS FOR PROVIDING CUSTOMIZED NUTRITIONAL SUPPLEMENTS” (Vibrant Holdings LLC, priority 2023, published 2026)", "origin": "cited, not measured here", "conditions": "upper tolerable limit; cited from earlier work", "data": [{"substance": "Folate (L-5-methyltetrahydrofolate)", "values": [{"measurement": "UTL", "value": "1,000 mcg/day"}]}]}
